This passage reports inhibition results from ChEMBL document CHEMBL4304814, “Fluorinated Analogues of the Histone Deacetylase Inhibitor Vorinostat (Zolinza): Validation of a Chiral Hybrid Bioisostere, BITE” (ACS Med Chem Lett, 2019).

Sequences of proteins named here, by UniProt entry; tags and fusion partners are left off.
UniProt Q13547, whole entry: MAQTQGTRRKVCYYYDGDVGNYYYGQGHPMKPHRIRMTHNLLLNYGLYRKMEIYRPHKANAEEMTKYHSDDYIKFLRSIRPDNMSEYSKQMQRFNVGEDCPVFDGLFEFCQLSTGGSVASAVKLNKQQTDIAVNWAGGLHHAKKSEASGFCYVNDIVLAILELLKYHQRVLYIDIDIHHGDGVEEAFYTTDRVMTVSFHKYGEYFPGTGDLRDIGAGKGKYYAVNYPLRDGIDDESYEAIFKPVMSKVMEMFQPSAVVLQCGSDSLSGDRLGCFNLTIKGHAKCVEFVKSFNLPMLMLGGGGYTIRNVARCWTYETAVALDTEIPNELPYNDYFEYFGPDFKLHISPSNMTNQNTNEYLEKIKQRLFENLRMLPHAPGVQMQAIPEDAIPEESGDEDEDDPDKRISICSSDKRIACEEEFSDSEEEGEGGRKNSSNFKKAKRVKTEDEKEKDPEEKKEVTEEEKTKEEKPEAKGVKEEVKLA

Structures are written as SMILES. The source made the active and inactive calls. The calls are words filed in the database; no cut-off is given here.

In experiment [1] the target is T1, Protein deacetylase HDAC6 (Homo sapiens) (UniProt Q9UBN7).
T1 sequence (whole entry): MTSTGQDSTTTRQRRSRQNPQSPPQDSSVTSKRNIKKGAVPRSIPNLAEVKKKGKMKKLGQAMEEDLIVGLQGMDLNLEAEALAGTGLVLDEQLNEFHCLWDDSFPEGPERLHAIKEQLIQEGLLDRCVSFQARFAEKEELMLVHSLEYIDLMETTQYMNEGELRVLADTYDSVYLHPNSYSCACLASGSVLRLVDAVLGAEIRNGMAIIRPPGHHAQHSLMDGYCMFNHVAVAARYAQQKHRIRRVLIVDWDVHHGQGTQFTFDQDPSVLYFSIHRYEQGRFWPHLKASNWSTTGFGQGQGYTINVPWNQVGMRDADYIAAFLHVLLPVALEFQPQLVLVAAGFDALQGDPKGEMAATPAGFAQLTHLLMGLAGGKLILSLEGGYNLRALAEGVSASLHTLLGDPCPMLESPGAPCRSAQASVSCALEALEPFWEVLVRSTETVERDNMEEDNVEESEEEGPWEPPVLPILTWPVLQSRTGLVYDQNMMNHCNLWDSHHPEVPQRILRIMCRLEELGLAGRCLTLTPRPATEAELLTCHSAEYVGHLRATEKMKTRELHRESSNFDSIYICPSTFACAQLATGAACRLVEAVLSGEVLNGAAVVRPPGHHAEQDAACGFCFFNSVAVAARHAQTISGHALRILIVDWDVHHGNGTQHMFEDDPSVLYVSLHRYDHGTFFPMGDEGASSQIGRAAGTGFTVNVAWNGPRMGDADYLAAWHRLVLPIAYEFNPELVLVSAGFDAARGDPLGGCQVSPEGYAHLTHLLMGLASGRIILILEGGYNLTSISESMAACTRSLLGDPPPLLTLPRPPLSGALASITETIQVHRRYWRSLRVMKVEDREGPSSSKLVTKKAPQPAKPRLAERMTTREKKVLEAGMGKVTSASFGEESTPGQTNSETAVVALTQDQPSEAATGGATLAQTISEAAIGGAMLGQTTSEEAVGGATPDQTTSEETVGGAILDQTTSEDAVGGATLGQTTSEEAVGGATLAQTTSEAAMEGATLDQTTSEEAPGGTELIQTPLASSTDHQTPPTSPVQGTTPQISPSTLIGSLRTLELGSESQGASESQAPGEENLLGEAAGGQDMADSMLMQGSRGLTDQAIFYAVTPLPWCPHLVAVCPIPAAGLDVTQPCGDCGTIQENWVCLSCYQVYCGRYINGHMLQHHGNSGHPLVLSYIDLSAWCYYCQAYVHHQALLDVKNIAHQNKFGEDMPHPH
The experiment is described as follows: Inhibition of full length recombinant GST-tagged N-terminal human HDAC6 expressed in baculovirus infected Sf9 insect cells using ZMAL (Z-Lys(Ac)-AMC) as substrate incubated for 90 mins by fluorescence based assay.

Experiment [2] deals with Histone deacetylase 1 (Homo sapiens) (UniProt Q13547). The experiment is described as follows: Inhibition of full length recombinant FLAG/His-tagged C-terminal human HDAC1 expressed in baculovirus infected Sf9 insect cells using ZMAL (Z-Lys(Ac)-AMC) as substrate incubated for 90 mins by fluorescence based assay.

In the case of `CCCCCCOC(=O)Cc1ccc(NC(=O)CCCCCCC(=O)NO)cc1`, the inhibition result in experiment [1] is “Active”.

`CCCCCOC(=O)Cc1ccc(NC(=O)CCCCCCC(=O)NO)cc1`: the inhibition entry in experiment [1] is “Active”.

For `O=C(CCCCCCC(=O)Nc1ccc(CC(=O)OCCCC(F)CF)cc1)NO` (stereo not given), the inhibition result in experiment [2] and in experiment [1] was “Active” in each case.

`CCCCOC(=O)Cc1ccc(NC(=O)CCCCCCC(=O)NO)cc1`: the inhibition entry in experiment [1] is “Active”.

Consider `O=C(CCCCCCC(=O)Nc1ccc(CC(=O)OCCC(F)CF)cc1)NO` (stereo not given), for which the inhibition entry in experiment [2] and in experiment [1] was “Active” in each case.

For the compound `O=C(CCCCCCC(=O)Nc1ccc(CC(=O)OCCCCCCCC(F)CF)cc1)NO` (stereo not given), in experiment [1], the inhibition entry is “Active”.

In the case of `O=C(CCCCCCC(=O)Nc1ccc(CC(=O)OCCCCCCC(F)CF)cc1)NO` (stereo not given), the inhibition entry in experiment [1] is “Active”.

Take `O=C(CCCCCCC(=O)Nc1ccc(CC(=O)OCCCCCC(F)CF)cc1)NO` (stereo not given): the inhibition entry in experiment [2] and in experiment [1] was “Active” each time.

`CCCCCCCCCCOC(=O)Cc1ccc(NC(=O)CCCCCCC(=O)NO)cc1`: in experiment [1], the inhibition result is “Active”.

Take `O=C(CCCCCCC(=O)Nc1ccc(CC(=O)OCCCCC(F)CF)cc1)NO` (stereo not given): the inhibition result in experiment [2] and in experiment [1] was “Active” each time.

Regarding `CCCCCCCCOC(=O)Cc1ccc(NC(=O)CCCCCCC(=O)NO)cc1`, the inhibition result in experiment [1] was “Active”.
